Results reported in patent publication US9822179B2, “Recombinant TNF ligand family member polypeptides with antibody binding domain and uses therefor” (UNIVERSITAT STUTTGART, priority 2011, dated 2017).

Amino acid sequences for entries named in this document (tags omitted). Residues count along the entry.
UniProt P07724, 25-608: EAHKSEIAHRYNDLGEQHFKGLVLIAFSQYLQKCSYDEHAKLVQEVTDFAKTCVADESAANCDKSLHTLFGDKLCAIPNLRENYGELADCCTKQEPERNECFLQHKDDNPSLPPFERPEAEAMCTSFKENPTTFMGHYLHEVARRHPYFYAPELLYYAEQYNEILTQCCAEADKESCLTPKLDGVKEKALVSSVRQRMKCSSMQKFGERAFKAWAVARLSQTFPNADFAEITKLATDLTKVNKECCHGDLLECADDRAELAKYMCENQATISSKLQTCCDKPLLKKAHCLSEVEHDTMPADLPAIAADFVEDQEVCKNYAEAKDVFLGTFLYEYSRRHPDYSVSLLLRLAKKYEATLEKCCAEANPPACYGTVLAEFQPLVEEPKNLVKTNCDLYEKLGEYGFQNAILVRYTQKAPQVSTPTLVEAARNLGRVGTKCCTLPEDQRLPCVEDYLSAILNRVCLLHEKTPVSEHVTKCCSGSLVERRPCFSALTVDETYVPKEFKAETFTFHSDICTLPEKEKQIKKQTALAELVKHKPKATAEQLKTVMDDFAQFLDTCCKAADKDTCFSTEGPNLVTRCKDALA

Experiments:
[1] = test system: EGFR+ Huh-7 hepatocellular carcinoma cells; assay: EGFR-directed induction of cell death in Huh-7 cells, serial dilutions of protein, crystal violet; assay type: cell-based; details: 250 ng/ml bortezomib, 16 h
Description: After 16 h, cell viability was determined using MTT staining (Colo 205) or crystal violet staining (Huh-7) and data were normalized using bortezomib-treated cells as control (mean SEM, n=3). (B) 1×10^4 Colo205 cells per well were grown in 96-well plates using medium with 0.1% FCS. […] (C) 1×10^4 Huh-7 cells per well were grown in 96-well plates and treated with 20 ng/ml bortezomib or with a combination of bortezomib and 10 μM zVADfmk.
After 16 h, cell viability was determined using crystal violet staining. […] The values for SEQ ID NO: 102 were plotted in both panels for comparison.
As a positive control, cells were killed with 0.25% Triton X-100. Cell death assays with Huh-7 and HepG2 cells were performed in the absence (FIG. 6, Jurkat cells) or presence of Bortezomib (FIG. 7, Huh-7: 250 ng/ml, FIG. 6, HepG2: 500 ng/ml, FIG. 18, Huh-7: 250 ng/ml), Selleck Chemicals, Houston, Tex.). Bortezomib was added 30 min prior incubation with the proapoptotic ligands to sensitize cells for the induction of cell death (FIGS. 6, 7). Alternatively, cells were preincubated for 30 min with the indicated concentrations of TRAIL fusion proteins followed by addition of serial dilutions of Bortezomib (FIG. 8). TRAIL only treated cells are shown in each panel for the applied TRAIL concentration (Bortezomib 0 ng/ml) (FIG. 8). After 16 h incubation, cell viability was determined either by crystal violet staining (Huh-7, HepG2) or the MTT method (Jurkat) (Wuest et al., 2002). In the latter case a lysis buffer consisting of 15% SDS in DMF/H2O (1:1), pH 4.5 (with […]) acetic acid) was used.

[2] = Pharmacokinetics in CD1 mice, 25 μg i.v., ELISA of serum samples; assay type: in vivo
Description: 25 μg of protein were injected i.v. in CD1 mice and serum samples were taken at the depicted time points followed by detection of scTRAIL molecules via ELISA.
To this end, 25 μg of fusion proteins were injected i.v. in CD1 mice and serum samples were analyzed at certain time points after injection by ELISA assay (FIG. 19).

[3] = molecular target: human serum albumin (HSA) (Homo sapiens, UniProt P02768); assay: Albumin binding assay by size exclusion chromatography, HSA; details: 1 h at RT, equimolar HSA
Description: (§1) Both proteins were incubated for 1 h at RT with equimolar concentrations of human serum albumin (HSA) or mouse serum albumin (MSA) and subsequently separated by size exclusion chromatography. Thyroglobulin (669 kDa), apoferritin (443 kDa), -amylase (200 kDa), bovine serum albumin (67 kDa), carbonic anhydrase (29 kDa) and FLAG peptide (1 kDa) were used as standard proteins/peptides.

[4] = molecular target: mouse serum albumin (MSA) (Mus musculus, UniProt P07724); assay: Albumin binding assay by size exclusion chromatography, MSA; details: 1 h at RT, equimolar MSA
Description: as §1

B1: SEQ ID NO: 125: dimeric EGFR-specific TRAIL fusion protein with albumin binding domain (ABD) between component A and component B (protein)
chain: MDWTWRVFCLLAVAPGAHSLEASDYKDDDDKGAEVQLVESGGGLVQPGGSLRLSCAASGFSLTNYGVHWVRQAPGKGLEWLGVIWSGGNTDYNTPFTSRFTISRDNSKNTLYLQMNSLRAEDTAVYYCARALTYYDYEFAYWGQGTTVTVSSGGGGSDIQLTQSPSFLSASVGDRVTITCRASQSIGTNIHWYQQKPGKAPKLLIKYASESISGVPSRFSGSGSGTEFTLTISSLQPEDFATYYCQQNNNWPTTFGAGTKLEIKRGGSQHDEAVDANSLAEAKVLANRELDKYGVSDYYKNLINNAKTVEGVKALIDEILAALPAAAGNGTSNGTSEFTRGTSEETISTVQEKQQNISPLVRERGPQRVAAHITGTRGRSNTLSSPNSKNEKALGRKINSWESSRSGHSFLSNLHLRNGELVIHEKGFYYIYSQTYFRFQEEIKENTKNDKQMVQYIYKYTSYPDPILLMKSARNSCWSKDAEYGLYSIYQGGIFELKENDRIFVSVTNEHLIDMDHEASFFGAFLVGGGGSGGGSTSEETISTVQEKQQNISPLVRERGPQRVAAHITGTRGRSNTLSSPNSKNEKALGRKINSWESSRSGHSFLSNLHLRNGELVIHEKGFYYIYSQTYFRFQEEIKENTKNDKQMVQYIYKYTSYPDPILLMKSARNSCWSKDAEYGLYSIYQGGIFELKENDRIFVSVTNEHLIDMDHEASFFGAFLVGGGGSGGGSTSEETISTVQEKQQNISPLVRERGPQRVAAHITGTRGRSNTLSSPNSKNEKALGRKINSWESSRSGHSFLSNLHLRNGELVIHEKGFYYIYSQTYFRFQEEIKENTKNDKQMVQYIYKYTSYPDPILLMKSARNSCWSKDAEYGLYSIYQGGIFELKENDRIFVSVTNEHLIDMDHEASFFGAFLVG
modifications: VH-VL(EGFR)-ABD-Glyco-scTrail
- bioactivity compared to SEQ ID NO: 102 [1]: bioactivity comparable to the dimeric TRAIL fusion protein lacking an ABD
- in vivo serum half-life [2]: about 20 hours
- albumin binding [3]: verified
- albumin binding [4]: verified
